The experiment concerns the target T1, HLA-DRA*01:01/DRB1*01:01 soluble heterodimer (human).
T1 chain 1: not shown
T1 chain 2: not shown

On to LPLKMLNIPSINVH (modifications not checked) [CMV], for which the IC50 (read off the curve) came out at 300 nM.

These data come from patent publication US20260031189A1, “METHOD AND SYSTEMS FOR PREDICTION OF HLA CLASS II-SPECIFIC EPITOPES AND CHARACTERIZATION OF CD4+ T CELLS” (BioNTech US Inc., priority 2022, published 2026).
